Experimental data from US9527840B2, “Substituted-quinoxaline-type piperidine compounds and the uses thereof” (priority 2007, dated 2016).

Sequences of proteins named here, by UniProt entry; tags and fusion partners are left off. A change or cut given only in a name is not applied to a line headed by its entry.
UniProt P41146: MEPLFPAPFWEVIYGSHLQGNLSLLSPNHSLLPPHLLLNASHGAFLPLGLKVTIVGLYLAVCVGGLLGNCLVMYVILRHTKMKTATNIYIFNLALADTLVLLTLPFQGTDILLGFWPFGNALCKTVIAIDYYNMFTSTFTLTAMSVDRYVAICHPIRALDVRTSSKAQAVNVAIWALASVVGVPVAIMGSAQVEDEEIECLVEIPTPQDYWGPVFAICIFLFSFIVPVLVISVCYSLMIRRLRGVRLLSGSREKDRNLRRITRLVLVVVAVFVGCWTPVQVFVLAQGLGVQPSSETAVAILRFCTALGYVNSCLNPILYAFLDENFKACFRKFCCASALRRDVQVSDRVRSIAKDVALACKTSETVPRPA
UniProt P35372: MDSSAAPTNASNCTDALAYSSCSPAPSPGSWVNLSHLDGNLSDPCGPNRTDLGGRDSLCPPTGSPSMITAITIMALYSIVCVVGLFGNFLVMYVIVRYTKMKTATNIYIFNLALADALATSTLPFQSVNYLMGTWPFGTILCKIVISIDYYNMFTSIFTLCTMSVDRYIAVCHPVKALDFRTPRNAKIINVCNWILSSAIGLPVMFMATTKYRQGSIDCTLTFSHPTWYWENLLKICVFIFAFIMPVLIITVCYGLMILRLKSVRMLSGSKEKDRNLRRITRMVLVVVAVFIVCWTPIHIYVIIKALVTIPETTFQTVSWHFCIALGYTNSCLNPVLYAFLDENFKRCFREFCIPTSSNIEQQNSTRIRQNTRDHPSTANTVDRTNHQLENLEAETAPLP
UniProt P41145: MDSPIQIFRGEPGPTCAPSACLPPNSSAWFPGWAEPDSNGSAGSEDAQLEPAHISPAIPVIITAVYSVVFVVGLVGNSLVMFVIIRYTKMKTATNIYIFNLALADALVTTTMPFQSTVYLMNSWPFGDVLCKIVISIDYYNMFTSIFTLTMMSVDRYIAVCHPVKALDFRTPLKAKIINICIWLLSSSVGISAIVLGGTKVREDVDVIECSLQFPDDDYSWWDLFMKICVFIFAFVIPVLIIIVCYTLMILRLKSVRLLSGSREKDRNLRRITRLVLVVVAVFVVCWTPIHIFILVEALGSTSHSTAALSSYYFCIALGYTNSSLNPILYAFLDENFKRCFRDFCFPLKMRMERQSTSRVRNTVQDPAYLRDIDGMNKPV
UniProt P41143: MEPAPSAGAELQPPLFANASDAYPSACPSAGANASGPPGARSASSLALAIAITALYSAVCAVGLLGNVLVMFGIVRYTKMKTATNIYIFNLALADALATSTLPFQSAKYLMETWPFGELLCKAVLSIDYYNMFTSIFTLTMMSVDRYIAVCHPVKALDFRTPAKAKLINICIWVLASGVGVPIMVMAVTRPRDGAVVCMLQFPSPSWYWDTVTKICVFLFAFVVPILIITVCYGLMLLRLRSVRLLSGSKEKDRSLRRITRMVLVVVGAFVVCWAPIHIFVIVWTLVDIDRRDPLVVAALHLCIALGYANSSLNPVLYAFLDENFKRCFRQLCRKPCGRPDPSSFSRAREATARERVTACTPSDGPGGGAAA

Columns and labels:
[1] = test system: FCA-induced inflammation of the rat hind paw; test: Freund's complete adjuvant (FCA) model of inflammatory pain; format: in vivo
[2] = Abnormal behavioral side effects (sedation, hyperactivity, hypoactivity); settings: rat, in vivo
[3] = target: T1, human opioid receptor-like (ORL-1) (Homo sapiens, UniProt P41146); test: In vitro ORL-1 receptor binding assay ([3H]-nociceptin displacement); settings: read-out: Ki [Average ± Std Deviation] ORL-1; membranes from recombinant HEK-293 cells
[4] = target: T1, human opioid receptor-like (ORL-1); test: In vitro ORL-1 receptor functional assay ([35S]GTPγS binding); format: biochemical; settings: mean ± SEM; for EC50: read-out: ORL-1 GTPγS EC50
[5] = target: T2, μ-opioid receptor (Homo sapiens, UniProt P35372); test: In vitro mu-opioid receptor binding assay ([3H]-diprenorphine displacement); settings: read-out: Ki [Average ± Std Deviation] Opioid Receptor Mu
[6] = target: kappa opioid receptor (Homo sapiens, UniProt P41145); test: In vitro kappa-opioid receptor functional assay ([35S]GTPγS); format: biochemical; settings: mean ± SEM; for EC50: read-out: Kappa opioid receptor GTPγS EC50
[7] = target: recombinant delta opioid receptor (Homo sapiens, UniProt P41143); test: In vitro delta-opioid receptor binding assay ([3H]-Naltrindole displacement); settings: read-out: Ki [Average ± Std Deviation] Opioid Receptor Delta; CHO-K1 cell membranes
[8] = target: T2, μ-opioid receptor; test: In vitro mu-opioid receptor functional assay ([35S]GTPγS); format: biochemical; settings: mean ± SEM

O=C(O)c1nc2ccccc2n([C@H]2C[C@H]3CCC[C@@H](C2)N3C2CCCCCCC2)c1=O
ED50 value for reversal of thermal hyperalgesia ([1]; 1 hour after administration): 2.7 mg/kg | ED50 value for reversal of thermal hyperalgesia ([1]; 3 hours after administration): 3.8 mg/kg | maximum % reversal of thermal hyperalgesia ([1]; 3 hours after administration): about 80% | ED50 value for reversal of thermal hyperalgesia ([1]; 5 hours after administration): 2.3 mg/kg

O=C(O)c1nc2ccccc2n([C@H]2C[C@H]3CC[C@@H](C2)N3C2CCCCCCCCCC2)c1=O
abnormal behavioral side effects, such as sedation, hyperactivity and/or hypoactivity [2]: reduced abnormal behavioral side effects

O=C(O)c1nc2ccccc2n([C@H]2C[C@H]3CC[C@@H](C2)N3C2CCCCCCC2)c1=O
maximum % reversal of thermal hyperalgesia ([1]; 3 hours after administration): about 80%

1-(4-(3-(hexahydropyrrolo[3,4-c]pyrrol-2(1H)-yl)-2-oxo-3,4-dihydroquinoxalin-1(2H)-yl)piperidin-1-yl)cyclooctanecarboxylic acid
Ki [3]: > 100000 nM

2454441-cyclooctylpiperidin-4-yl)-3-oxo-3,4-dihydroquinoxalin-2-yl)hexahydropyrrolo[3,4-c]pyrrol-2(1H)-yl)-2-oxoacetic acid
ORL-1 GTPγS Emax [4]: 69.7 ± 5.2% | EC50 [4]: 1620 nM | Ki [5]: 2920 nM | Kappa opioid receptor GTPγS Emax [6]: 0.3% | EC50 [6]: > 20000 nM | Ki [7]: > 20000 nM | Ki [3]: 71.4 nM

O=C(O)c1nc2ccccc2n([C@H]2C[C@H]3CCC[C@@H](C2)N3C2CC3CCCC(C3)C2)c1=O (stereo partly drawn) [Compound 362, 4-((endo)-9-((exo)-bicyclo[3.3.1]nonan-3-yl)-9-azabicyclo[3.3.1]nonan-3-yl)-3-oxo-3,4-dihydroquinoxaline-2-carboxylic acid]
ED50 value for reversal of thermal hyperalgesia ([1]; 1 hour after administration): 0.8 mg/kg | ED50 value for reversal of thermal hyperalgesia ([1]; 3 hours after administration): 1.5 mg/kg | ED50 value for reversal of thermal hyperalgesia ([1]; 5 hours after administration): 3.0 mg/kg

(S)-2-(4-((endo)-9-cyclooctyl-9-azabicyclo[3.3.1]nonan-3-yl)-3-oxo-3,4-dihydroquinoxaline-2-carboxamido)-2-phenylacetic acid
ORL-1 GTPγS Emax [4]: 57.7 ± 2^ % | EC50 [4]: 53.1 nM | Ki [5]: 443 nM | Mu opioid receptor GTPγS Emax [8]: 12 ± 1.8% | EC50 ([8]; read-out: Mu opioid receptor GTPγS EC50): 5.26 µM | Kappa opioid receptor GTPγS Emax [6]: 8.7 ± 1.3% | EC50 [6]: 208 nM | Ki [7]: 106 nM | Ki [3]: 9 nM
